The numbers were not newly measured in patent US9724355B2, “Fulvestrant compositions and methods of use” (SHIMODA BIOTECH (PTY) LTD, priority 2010, dated 2017), which cites them from elsewhere.

For the data set the following is noted: cited from earlier work.

Take Hydroxypropyl gamma-cyclodextrin: the “Water Solubility (25° C.)” value was more than 750 mg/mL.
